Ab-14 light chain CDR variants: yeast mating affinities

From the AlphaSeq antibody data of Li et al. 2023 (doi:10.1038/s41467-023-39022-2), copy in the FLAb collection.

All variants were tested on one target, the spike HR2 peptide PDVDLGDISGINAS (SARS-CoV-2).

Ab-14 is the parent antibody, in scFv form: VH, then a (GGGGS)3 linker, then VL. The heavy chain is unchanged in all variants.
VH: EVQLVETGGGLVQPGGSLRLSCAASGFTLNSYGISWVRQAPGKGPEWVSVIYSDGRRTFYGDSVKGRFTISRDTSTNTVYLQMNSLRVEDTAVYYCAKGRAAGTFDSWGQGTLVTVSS
VL: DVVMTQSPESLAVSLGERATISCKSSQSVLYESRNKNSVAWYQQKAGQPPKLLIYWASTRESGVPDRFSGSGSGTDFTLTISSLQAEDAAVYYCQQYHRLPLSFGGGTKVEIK

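The starting antibody came from a phage panning campaign against this peptide. The variants were designed computationally from a first round of random CDR variants and then made and measured. Several design methods are mixed in this list. The assay is AlphaSeq: two haploid yeast populations carry antibody and antigen on their surface. The frequency of each diploid, read from paired DNA barcodes, reflects how well the two displayed proteins bind. Scores were corrected for input abundance and mapped to Kd with protein pairs of known affinity run in the same pool. Each pool was mated in six replicate cultures.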

Substitutions are numbered in sequence along the VL above, starting at 1 (not Kabat). This list holds designs with at most six substitutions. The Kd shown is the geometric mean over detected replicates; a lower Kd is a better binder. Where no diploid with the target was found in any replicate, the entry reads "no signal": below detection, most likely a poor binder, though not proof of it. Order: sorted from the lowest average up, undetected variants last.

With S25L+S26L+Y31L+K36D+W56N+S62L the result was 420 pM (6 of 6 replicates).
With S25I+V29Y+Y31G+K36V+S38A+W56N the result was 470 pM (6 of 6 replicates).
With S25L+E32Q+W56D the result was 670 pM (6 of 6 replicates).
With S25Q+S28V+W56D+S62V the result was 680 pM (6 of 6 replicates).
With S25L+W56N+S62Q the result was 780 pM (6 of 6 replicates).
With S25L+S26P+V29Q+W56N+E61L the result was 840 pM (6 of 6 replicates).
With S25Q+Q27C+Y31Q+W56D the result was 850 pM (6 of 6 replicates).
With S25L+V29W+L30G+S38N+W56N the result was 880 pM (6 of 6 replicates).
With S25I+V29H+W56N the result was 990 pM (6 of 6 replicates).
With Q27S+V29Y+K36E+W56E+S62Q the result was 1.1 nM (6 of 6 replicates).
With S25L+S26E+V29W+W56N+S62D the result was 1.2 nM (6 of 6 replicates).
With S25V+Q27G+V29Q+K36S+W56N+T59N the result was 1.5 nM (6 of 6 replicates).
With K24I+S25A+S26K+V29W+W56G+S103I the result was 1.6 nM (6 of 6 replicates).
With S25L+V29E+N35M+W56E+T59Q the result was 1.6 nM (6 of 6 replicates).
With S25L+Y31G+E32G+S33D+W56H+S103Y the result was 1.7 nM (6 of 6 replicates).
With Q27I+V29Y+Y31G+K36E+W56E+S62Q the result was 1.7 nM (6 of 6 replicates).
With Q27W+V29Y+W56E+S103M the result was 1.9 nM (6 of 6 replicates).
With S26Q+V29Q+K36F+W56H+S62D the result was 1.9 nM (6 of 6 replicates).
With S25W+Q27F+Y31G+W56D+H98E the result was 2.1 nM (6 of 6 replicates).
With S25M+Y31M+S33M+K36A+W56N+S62M the result was 2.4 nM (6 of 6 replicates).
With Q27W+V29W+R34N+W56H+S62D the result was 3.4 nM (6 of 6 replicates).
With S25L+S26D+Q27G+V29D+W56E+Q96A the result was 3.4 nM (6 of 6 replicates).
With S25T+V29K+E32D+R34S+W56E+E61N the result was 3.8 nM (6 of 6 replicates).
With S25L+S26Q+W56Q+E61S+S62D+Q96C the result was 4.1 nM (6 of 6 replicates).
With S25M+S28L+V29Q+S33W+W56N+T59Y the result was 4.3 nM (6 of 6 replicates).
With S25L+L30C+W56N the result was 4.4 nM (6 of 6 replicates).
With S25V+S26Q+V29W+W56N+T59Q+E61L the result was 4.4 nM (6 of 6 replicates).
With S28E+S33G+V39L+W56K the result was 7.0 nM (6 of 6 replicates).
With V29W+W56G+P101W the result was 7.5 nM (6 of 6 replicates).
With S25L+S26H+N35H+W56G+T59Q the result was 7.9 nM (6 of 6 replicates).
With S26G+S28G+K36G+A40D+W56G+T59L the result was 9.7 nM (6 of 6 replicates).
With N35A+W56M+A57G the result was 11 nM (6 of 6 replicates).
With R34I the result was 23 nM (3 of 6 replicates).
With S38G+A57G+H98F the result was 32 nM (4 of 6 replicates).
With K24H+S25I+Q95A+H98M+L102P the result was 38 nM (7 of 30 replicates).
With V29A+L102W the result was 60 nM (1 of 6 replicates).
With S25Y+S28P+W56A+T59L+E61F+R99C the result was 140 nM (6 of 6 replicates).
With W56A+T59H+S103L the result was 170 nM (3 of 6 replicates).
With V29W+A40T+W56G+L102V the result was 250 nM (2 of 6 replicates).
With Y31R+S33D+S103W the result was 350 nM (4 of 6 replicates).
With S26I+S33E the result was 380 nM (4 of 6 replicates).
With N35W+W56A+Q95G the result was 620 nM (2 of 6 replicates).
With V29W+K36F+N37W+W56G+Y97G the result was no signal (0 of 6 replicates).
With L30F+A40H+S103L the result was no signal (0 of 6 replicates).
With L30P+S62D+P101Q the result was no signal (0 of 6 replicates).
With Q27Y+S28H+V29K+Y31T+A57R the result was no signal (0 of 6 replicates).
With K36H+R60P+L102V the result was no signal (0 of 6 replicates).
With K24M+E32D+S62V the result was no signal (0 of 6 replicates).

Excerpt, the final 5 entries:

{"changes": "L30F+A40H+S103L", "apparent Kd": "no signal", "detected": "0/6"}
{"changes": "L30P+S62D+P101Q", "apparent Kd": "no signal", "detected": "0/6"}
{"changes": "Q27Y+S28H+V29K+Y31T+A57R", "apparent Kd": "no signal", "detected": "0/6"}
{"changes": "K36H+R60P+L102V", "apparent Kd": "no signal", "detected": "0/6"}
{"changes": "K24M+E32D+S62V", "apparent Kd": "no signal", "detected": "0/6"}

Of ten entries with the parent sequence, four were seen in most replicates (averages 2.2 nM to 240 nM), three in one and three in none, so single entries are noisy. The authors' rule: three or more of the six replicates give a measured affinity, fewer mean a poor binder. Where one sequence has several entries in the source, the replicates are pooled. Nonspecific signal, from three strains lacking the peptide, appeared in 4% of pairings of all light chain designs, centred on 430 nM (5% of these signals below 38 nM); values are not corrected for it. A sequence measured in both rounds can read differently, since the two assays cover different ranges.